Measured values taken from ChEMBL document CHEMBL4350957, “Use of the 4-Hydroxytriazole Moiety as a Bioisosteric Tool in the Development of Ionotropic Glutamate Receptor Ligands” (J Med Chem, 2019).

Protein sequences, listed by entry. Tags and fused reporters are not part of them. Lines headed by an entry give the natural chain unless they say otherwise; changes in a name come on top.
UniProt P48058: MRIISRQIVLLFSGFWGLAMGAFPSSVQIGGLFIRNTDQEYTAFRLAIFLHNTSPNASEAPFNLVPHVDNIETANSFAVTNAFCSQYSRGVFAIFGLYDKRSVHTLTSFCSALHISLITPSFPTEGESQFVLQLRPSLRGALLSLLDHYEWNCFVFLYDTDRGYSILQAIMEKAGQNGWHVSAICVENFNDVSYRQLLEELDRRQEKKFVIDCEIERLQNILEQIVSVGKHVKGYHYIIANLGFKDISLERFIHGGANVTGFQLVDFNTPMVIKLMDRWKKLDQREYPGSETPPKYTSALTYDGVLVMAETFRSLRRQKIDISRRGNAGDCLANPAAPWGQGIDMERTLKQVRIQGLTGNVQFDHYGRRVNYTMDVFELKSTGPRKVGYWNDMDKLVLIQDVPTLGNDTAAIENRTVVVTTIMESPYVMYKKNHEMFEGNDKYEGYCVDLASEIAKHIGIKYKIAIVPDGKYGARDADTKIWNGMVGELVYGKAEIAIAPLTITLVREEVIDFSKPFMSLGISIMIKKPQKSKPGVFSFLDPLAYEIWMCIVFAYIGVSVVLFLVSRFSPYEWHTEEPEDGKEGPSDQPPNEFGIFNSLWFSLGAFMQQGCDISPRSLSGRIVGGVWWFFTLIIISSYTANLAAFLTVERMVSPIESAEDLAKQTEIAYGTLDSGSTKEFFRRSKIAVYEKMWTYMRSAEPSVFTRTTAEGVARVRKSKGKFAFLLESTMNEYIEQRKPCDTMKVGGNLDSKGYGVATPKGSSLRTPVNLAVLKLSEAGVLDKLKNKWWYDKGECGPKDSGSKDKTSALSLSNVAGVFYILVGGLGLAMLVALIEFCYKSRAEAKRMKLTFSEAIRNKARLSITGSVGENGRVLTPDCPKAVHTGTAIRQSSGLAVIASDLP
UniProt P19490: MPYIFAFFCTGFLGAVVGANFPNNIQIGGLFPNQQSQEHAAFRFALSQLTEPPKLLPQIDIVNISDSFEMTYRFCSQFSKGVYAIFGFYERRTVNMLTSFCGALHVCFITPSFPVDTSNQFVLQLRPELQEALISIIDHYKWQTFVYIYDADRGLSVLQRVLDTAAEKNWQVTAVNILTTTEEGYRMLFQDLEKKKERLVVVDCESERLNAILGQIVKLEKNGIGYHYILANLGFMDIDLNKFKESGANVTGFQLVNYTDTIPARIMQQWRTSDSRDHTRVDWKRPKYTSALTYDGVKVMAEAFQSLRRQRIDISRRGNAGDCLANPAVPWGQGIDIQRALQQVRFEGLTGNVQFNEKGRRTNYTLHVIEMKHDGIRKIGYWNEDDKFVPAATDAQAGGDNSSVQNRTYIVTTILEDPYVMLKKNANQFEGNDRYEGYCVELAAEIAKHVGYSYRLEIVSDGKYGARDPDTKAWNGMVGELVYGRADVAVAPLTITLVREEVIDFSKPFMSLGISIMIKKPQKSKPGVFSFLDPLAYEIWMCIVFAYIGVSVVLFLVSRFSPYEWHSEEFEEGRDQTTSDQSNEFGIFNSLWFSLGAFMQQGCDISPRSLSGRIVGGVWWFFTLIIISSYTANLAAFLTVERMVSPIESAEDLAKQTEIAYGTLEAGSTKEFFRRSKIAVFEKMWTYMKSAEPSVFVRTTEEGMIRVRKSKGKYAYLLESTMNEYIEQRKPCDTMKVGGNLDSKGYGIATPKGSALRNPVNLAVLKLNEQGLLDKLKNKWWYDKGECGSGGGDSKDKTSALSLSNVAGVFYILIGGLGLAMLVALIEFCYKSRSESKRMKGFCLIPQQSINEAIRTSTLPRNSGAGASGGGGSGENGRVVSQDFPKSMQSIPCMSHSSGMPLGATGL
UniProt P19492: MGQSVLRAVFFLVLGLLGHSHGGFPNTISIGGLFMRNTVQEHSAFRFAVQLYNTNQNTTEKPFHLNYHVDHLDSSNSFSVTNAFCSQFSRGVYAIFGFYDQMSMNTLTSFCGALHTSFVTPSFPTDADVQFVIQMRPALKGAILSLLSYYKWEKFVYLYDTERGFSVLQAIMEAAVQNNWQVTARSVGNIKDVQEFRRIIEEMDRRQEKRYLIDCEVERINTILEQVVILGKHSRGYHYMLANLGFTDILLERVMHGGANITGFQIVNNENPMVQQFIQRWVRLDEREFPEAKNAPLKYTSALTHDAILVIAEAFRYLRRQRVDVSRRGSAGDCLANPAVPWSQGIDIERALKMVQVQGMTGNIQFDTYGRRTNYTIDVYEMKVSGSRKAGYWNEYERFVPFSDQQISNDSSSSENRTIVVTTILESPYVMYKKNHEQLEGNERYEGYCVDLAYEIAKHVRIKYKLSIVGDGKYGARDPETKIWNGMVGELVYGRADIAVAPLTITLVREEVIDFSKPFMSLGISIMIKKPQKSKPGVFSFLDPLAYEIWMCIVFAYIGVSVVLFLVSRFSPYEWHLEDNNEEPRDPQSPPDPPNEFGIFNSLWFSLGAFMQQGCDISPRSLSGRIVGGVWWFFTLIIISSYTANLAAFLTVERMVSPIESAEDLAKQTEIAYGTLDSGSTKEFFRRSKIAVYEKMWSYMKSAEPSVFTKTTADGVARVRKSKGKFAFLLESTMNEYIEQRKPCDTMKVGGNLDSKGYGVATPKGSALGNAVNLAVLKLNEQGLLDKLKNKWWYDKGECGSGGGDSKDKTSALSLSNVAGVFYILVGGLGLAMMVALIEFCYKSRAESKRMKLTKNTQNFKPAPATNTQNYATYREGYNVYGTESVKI
UniProt P19493: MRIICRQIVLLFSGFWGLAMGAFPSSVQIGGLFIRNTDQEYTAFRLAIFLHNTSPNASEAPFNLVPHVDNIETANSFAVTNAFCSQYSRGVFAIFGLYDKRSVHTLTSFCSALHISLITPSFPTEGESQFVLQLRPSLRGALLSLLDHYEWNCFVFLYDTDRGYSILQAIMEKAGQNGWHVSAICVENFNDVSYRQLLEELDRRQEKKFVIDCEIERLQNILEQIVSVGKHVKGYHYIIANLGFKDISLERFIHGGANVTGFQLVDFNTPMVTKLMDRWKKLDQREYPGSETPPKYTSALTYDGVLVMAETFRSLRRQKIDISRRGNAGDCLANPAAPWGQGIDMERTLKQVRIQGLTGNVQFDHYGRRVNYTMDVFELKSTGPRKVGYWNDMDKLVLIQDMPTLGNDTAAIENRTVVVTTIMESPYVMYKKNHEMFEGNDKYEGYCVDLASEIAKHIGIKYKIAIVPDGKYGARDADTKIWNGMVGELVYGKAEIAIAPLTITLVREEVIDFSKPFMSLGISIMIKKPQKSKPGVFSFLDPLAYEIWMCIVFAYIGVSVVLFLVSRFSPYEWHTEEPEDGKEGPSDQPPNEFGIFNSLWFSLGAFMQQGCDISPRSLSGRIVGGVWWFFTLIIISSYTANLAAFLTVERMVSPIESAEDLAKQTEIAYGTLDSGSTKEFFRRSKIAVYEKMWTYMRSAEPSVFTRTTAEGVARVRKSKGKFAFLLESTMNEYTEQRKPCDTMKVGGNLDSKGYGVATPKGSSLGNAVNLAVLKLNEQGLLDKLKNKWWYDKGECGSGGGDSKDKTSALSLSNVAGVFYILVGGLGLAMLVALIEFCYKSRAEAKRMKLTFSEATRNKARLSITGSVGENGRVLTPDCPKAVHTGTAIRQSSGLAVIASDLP
UniProt P19491: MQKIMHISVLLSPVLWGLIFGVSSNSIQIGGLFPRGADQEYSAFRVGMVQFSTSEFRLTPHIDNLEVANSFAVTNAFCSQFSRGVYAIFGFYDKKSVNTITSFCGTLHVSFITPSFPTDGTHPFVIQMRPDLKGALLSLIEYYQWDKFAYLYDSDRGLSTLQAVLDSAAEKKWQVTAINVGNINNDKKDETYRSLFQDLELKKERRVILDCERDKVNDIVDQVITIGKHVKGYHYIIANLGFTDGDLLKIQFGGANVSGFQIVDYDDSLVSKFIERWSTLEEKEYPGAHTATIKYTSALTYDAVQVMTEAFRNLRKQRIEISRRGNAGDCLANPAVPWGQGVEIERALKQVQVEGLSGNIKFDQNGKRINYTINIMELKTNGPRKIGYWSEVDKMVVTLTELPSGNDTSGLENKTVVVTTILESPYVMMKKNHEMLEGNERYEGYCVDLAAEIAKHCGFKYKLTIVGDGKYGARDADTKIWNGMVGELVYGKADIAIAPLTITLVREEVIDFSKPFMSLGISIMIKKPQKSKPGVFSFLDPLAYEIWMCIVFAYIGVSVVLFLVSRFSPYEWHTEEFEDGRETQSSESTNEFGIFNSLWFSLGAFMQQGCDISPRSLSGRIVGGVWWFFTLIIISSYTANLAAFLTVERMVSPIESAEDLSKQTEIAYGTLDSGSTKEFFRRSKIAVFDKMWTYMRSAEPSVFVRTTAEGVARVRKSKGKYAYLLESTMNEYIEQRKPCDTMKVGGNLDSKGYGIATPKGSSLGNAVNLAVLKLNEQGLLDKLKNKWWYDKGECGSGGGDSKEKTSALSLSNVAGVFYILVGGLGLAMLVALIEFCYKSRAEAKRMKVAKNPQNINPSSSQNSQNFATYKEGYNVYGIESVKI

Tests used:
Glutamate receptor 4 [1] = biological target: Glutamate receptor 4 (Homo sapiens, UniProt P48058)
Glutamate receptor 1 = Glutamate receptor 1 (Rattus norvegicus, UniProt P19490); assay: biochemical
Glutamate receptor 3 = Glutamate receptor 3 (Rattus norvegicus, UniProt P19492); assay: biochemical
Glutamate receptor 4 [2] = biological target: Glutamate receptor 4 (Rattus norvegicus, UniProt P19493); assay: biochemical
[3] = biological target: Glutamate NMDA receptor; Grin1/Grin2c (Rattus norvegicus, UniProt P35439+Q00961)
[4] = biological target: Glutamate NMDA receptor; Grin1/Grin2b (Rattus norvegicus, UniProt P35439+Q00960)
[5] = biological target: Glutamate receptor ionotropic, AMPA (Rattus norvegicus, UniProt P19490+P19491+P19492+P19493)

## Cn1nnc(O)c1CC(N)C(=O)O (racemic)
Glutamate receptor 4 [1]
  EC50: 55 µM
Glutamate receptor 1
  Ki: 15.7 µM
Glutamate receptor 3
  Ki: 4.98 µM
Glutamate receptor 4 [2]
  Ki: 4.08 µM

## Cn1nc(O)c(C(N)C(=O)O)n1 (racemic)
[3]
  EC50: 90 µM
[4]
  EC50: 108 µM
Glutamate NMDA receptor
  Ki: 34 µM

## CCCn1nnc(O)c1CC(N)C(=O)O (racemic)
Glutamate receptor 1
  Ki: 54.1 µM
Glutamate receptor 3
  Ki: 11.9 µM
[5]
  IC50: 5.2 µM
